Drawing on ChEMBL document CHEMBL5584205 (Bioorg Med Chem Lett, 2024), this text covers IC50 for 1 molecule.

The target in the assay is T1, Neutrophil elastase (Homo sapiens, UniProt P08246).
T1 sequence (P08246 whole entry): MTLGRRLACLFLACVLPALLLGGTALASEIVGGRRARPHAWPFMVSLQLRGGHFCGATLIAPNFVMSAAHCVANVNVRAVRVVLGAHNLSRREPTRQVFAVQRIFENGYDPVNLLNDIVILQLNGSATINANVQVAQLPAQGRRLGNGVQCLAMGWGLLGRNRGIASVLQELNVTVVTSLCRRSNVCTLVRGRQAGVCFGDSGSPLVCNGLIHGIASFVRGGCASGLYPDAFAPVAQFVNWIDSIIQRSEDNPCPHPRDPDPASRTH
Put plainly: Inhibition of human neutrophil elastase by enzymatic assay.

By IC50 is commonly meant the concentration that gives 50% inhibition. Low readings indicate higher potency, high ones lower potency. With `CC(C)(C)C(=O)Oc1ccc(S(=O)(=O)Nc2ccccc2C(=O)NCC(=O)O)cc1`, half-maximal inhibition (IC50) required 41 nM.
